According to US20080199423A1, “Methods of Using Apo2l Receptor Agonists and Ink Cell Activators” (GENENTECH, INC., priority 2004, published 2008):

Tested on: cell surface Apo2L/TRAIL on NK cells
Assay: Flow cytometry of cell surface Apo2L/TRAIL on purified NK cells
Assay type: cell-based, human
Details: 5C2-Alexa 488 staining
Experimental: Cell surface Apo2L/TRAIL on purified NK cells treated with poly(I:C), R-848 or hIL-2 (30 ng/ml, BD Biosciences) was also analyzed by cytometry. Isotype control (IgG2a, Sigma) and anti-Apo2L/TRAIL antibody (5C2) were labeled with Alexa 488 (Molecular Probes). 5×10^5 cells were incubated with 2 μg of human IgG to block FcRs and 1 μg of the directly labeled mAbs at 4° C. for 45 minutes, followed by 2 washes. Stained cells were analyzed using a FACScan cytometer (Becton Dickenson) and Cellquest software.

Substance: IL-2: hIL-2 (30 ng/ml, BD Biosciences), positive control
- Cell surface expression of Apo2L/TRAIL on NK cells: increases the expression
